# Legend:
# fibrinogen (human) = fibrinogen (human) (UniProt P02671); experiment: cell-based or functional assay
# thrombin = experiment: Response of products to thrombin in platelet-free plasma (light transmission aggregometer); format: biochemical, human; conditions: suboptimal thrombin, increase in light transmission over 20 minutes, mean ± sd of 4 experiments
# Source text: To determine whether the fibrinogen bound to the peptide on the agent of the invention can still be cleaved by thrombin to form fibrin, an agent of the invention can be treated with human thrombin. Cross-linking of the agent of the invention via fibrin-fibrin bridging can be tested in a modified aggregation assay, for example, a protocol based on Levi et al, 1999, Nature Medicine, […], 107-111. The method that we used is reported below.
# 1. Method for assessing the response of products to thrombin in platelet-free plasma.
# The assay was performed using a light transmission aggregometer (we used a PAP4 aggregometer (BioData Corporation)). Thrombin was added to a mixture of plasma (without platelets) and product. […] Aggregation of the microspheres causes an increase in light transmission, which can be recorded as percentage “aggregation” relative to plasma alone.
# (i) The count of the products, reference batch or controls was adjusted to 100×10^3/ml. The microspheres can be counted using a particle counter such as a Flow cytometer (e.g. Beckman Coulter MCL-XL) or Coulter Z2. […]
# (iv) 50 μl of each of the test preparations or product, reference batch or control microspheres were added to 350 μl of platelet-free plasma. The increase in light transmission over 20 minutes in the presence and absence of suboptimal thrombin (determined as described above) was measured.
Substance,Percentage aggregation (+thrombin); Reference batch (fibrinogen (human)),Percentage aggregation (+thrombin); … microspheres incubated with 0 mg/ml fibrinogen (fibrinogen (human)),Percentage aggregation (+thrombin); … microspheres incubated with 0.01 mg/ml fibrinogen (fibrinogen (human)),Percentage aggregation (+thrombin); … microspheres incubated with 0.1 mg/ml fibrinogen (fibrinogen (human)),Percentage aggregation (+thrombin); … microspheres incubated with 1 mg/ml fibrinogen (fibrinogen (human)),Percentage aggregation in the presence of thrombin; Product 1 (fibrinogen bound via …) in platelet-free plasma (fibrinogen (human)),Percentage aggregation in the presence of thrombin; Product 2 (peptide microspheres without preloaded fibrinogen) in platelet-free plasma (fibrinogen (human)),Percentage aggregation in the presence of thrombin; Reference batch (fibrinogen directly on microspheres) in platelet-free plasma (fibrinogen (human)),Percentage aggregation in the presence of thrombin (thrombin),Percentage aggregation in the presence of thrombin (thrombin; listed as 0 mg/ml)
thrombin (from UniProt P00734 328-622) (enzyme),20.5%,17.5%,31.2%,90.8%,87.2%,90%,17.5%,20.5%,–,–
"Product 2: albumin microspheres with peptide GPRPGGGGGGC bound, without fibrinogen",–,–,–,–,–,–,–,–,17.5 ± 14.1%,17.5 ± 14.25%

# — patent publication US20080064628A1, “Fibrinogen Targetting Microparticles For Promoting Haemostasis” (Haemostatix Limited, priority 2003, published 2008)
